Values quoted from earlier work as cited in patent US11149040B2, “Fused triazole agonists of the APJ receptor” (AMGEN INC., priority 2017, dated 2021).

Amino acid sequences for entries named in this document (tags omitted). A change or cut given only in a name is not applied to a line headed by its entry.
UniProt P35414: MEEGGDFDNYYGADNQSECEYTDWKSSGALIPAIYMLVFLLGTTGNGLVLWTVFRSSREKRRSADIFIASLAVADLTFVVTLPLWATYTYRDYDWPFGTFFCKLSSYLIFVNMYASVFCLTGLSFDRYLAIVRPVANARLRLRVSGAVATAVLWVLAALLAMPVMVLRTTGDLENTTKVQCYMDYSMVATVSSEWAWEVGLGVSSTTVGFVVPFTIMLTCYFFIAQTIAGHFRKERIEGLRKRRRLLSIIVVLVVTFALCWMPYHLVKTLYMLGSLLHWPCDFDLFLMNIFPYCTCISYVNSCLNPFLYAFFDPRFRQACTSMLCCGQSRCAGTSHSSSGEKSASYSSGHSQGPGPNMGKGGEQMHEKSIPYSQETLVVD

Target: APJ receptor (Homo sapiens (Human), UniProt P35414)
Details: higher than apelin-36; cited from earlier work

Apelin-13
in vitro affinity to the APJ receptor relative to apelin-36: ~3.5 fold
